System: DNA (plasmid 2959 bp)
Conditions: DNA preincubated with increasing quantities in DMSO before adsorption; FIG. 8

Q: With `CN(N=O)C(=N)N[N+](=O)[O-]` as the compound, how does the “genotoxicity (repair ratio vs dose)” value read?
A: dose-dependent

From US6261767A, “Method for the qualitative and quantitative detection of DNA damage” (Societe Francaise de Recherches et d'Investissements (SFRI), priority 1995, dated 2001)
